{"source": "patent US20080199424A1", "about": "(published 2008)", "key": {"[1]": {"target": "MART-1 peptide on HLA-A*02:01 (human)", "test": "lower end of the range; equilibrium tetramer binding on Jurkat cells stably transfected with M1 alpha and beta, tetramer 0.1-25 nM, Scatchard plot, KD=1/slope (tetramer avidity); full-length, on cells"}, "[2]": {"target": "MART-1 peptide on HLA-A*02:01 (human)", "test": "upper end of the range; equilibrium tetramer binding on Jurkat cells stably transfected with M1 alpha and beta, tetramer 0.1-25 nM, Scatchard plot, KD=1/slope (tetramer avidity); full-length, on cells"}}, "data": [{"binder": "M1 TCR (TCR, V domains shown) Valpha: QKEVEQDPGPLSVPEGAIVSLNCTYSNSAFQYFMWYRQYSRKGPELLMYTYSSGNKEDGRFTAQVDKSSKYISLFIRDSQPSDSATYLCAMSETGGFKTIFGAGTRLFVKA Vbeta: EAQVTQNPRYLITVTGKKLTVTCSQNMNHEYMSWYRQDPGLGLRQIYYSMNVEVTDKGDVPEGYKVSRKEKRNFPLILESPSPNQTSLYFCASSLVGTAGSPLHFGNGTRLTVT", "values": [{"measurement": "Kd", "setting": "[1]", "value": "≥ 4", "unit": "nM"}, {"measurement": "Kd", "setting": "[2]", "value": "≤ 6", "unit": "nM"}]}]}
